Paper PMC4543658

Sequences of proteins named here, by UniProt entry; tags and fusion partners are left off. A change or cut given only in a name is not applied to a line headed by its entry.
UniProt Q8T913: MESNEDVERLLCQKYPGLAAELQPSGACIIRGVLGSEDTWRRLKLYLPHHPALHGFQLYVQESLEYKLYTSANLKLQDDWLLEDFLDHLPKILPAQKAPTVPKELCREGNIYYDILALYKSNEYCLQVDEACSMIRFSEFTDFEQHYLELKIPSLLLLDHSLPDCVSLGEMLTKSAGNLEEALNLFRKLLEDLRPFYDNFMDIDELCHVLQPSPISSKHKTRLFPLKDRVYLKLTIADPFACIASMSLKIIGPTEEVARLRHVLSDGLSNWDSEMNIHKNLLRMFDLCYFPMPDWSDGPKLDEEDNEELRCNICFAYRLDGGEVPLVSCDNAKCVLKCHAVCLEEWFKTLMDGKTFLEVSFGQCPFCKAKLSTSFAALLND

Biological target: Drosophila FANCL ELF domain (1-105) (Drosophila melanogaster) (UniProt Q8T913)
Assay: ITC; ITC200; 2.5 mM ubiquitin in the syringe, 230 μM ELF domain in the cell; 50 mM Tris pH 8.0, 100 mM NaCl; 30 °C; cell concentrations adjusted to a 1:1 stoichiometric interaction

- Kd: 42 µM
Substance: human ubiquitin (no tag) (from UniProt P0CG48 1-76) (natural protein)
